Test results taken from PMC3003753 (Journal of medicinal chemistry, 2010).

Sequences of proteins named here, by UniProt entry; tags and fusion partners are left off.
UniProt P61073, whole entry: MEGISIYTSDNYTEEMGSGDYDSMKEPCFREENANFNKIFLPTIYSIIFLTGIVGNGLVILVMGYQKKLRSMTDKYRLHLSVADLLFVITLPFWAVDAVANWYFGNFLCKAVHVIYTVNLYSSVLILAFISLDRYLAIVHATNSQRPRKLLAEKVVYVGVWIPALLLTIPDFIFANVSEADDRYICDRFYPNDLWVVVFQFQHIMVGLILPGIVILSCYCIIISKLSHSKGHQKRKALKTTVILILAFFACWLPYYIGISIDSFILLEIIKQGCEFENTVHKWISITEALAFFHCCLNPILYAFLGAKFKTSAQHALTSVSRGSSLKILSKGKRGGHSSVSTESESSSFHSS
UniProt P51681, whole entry: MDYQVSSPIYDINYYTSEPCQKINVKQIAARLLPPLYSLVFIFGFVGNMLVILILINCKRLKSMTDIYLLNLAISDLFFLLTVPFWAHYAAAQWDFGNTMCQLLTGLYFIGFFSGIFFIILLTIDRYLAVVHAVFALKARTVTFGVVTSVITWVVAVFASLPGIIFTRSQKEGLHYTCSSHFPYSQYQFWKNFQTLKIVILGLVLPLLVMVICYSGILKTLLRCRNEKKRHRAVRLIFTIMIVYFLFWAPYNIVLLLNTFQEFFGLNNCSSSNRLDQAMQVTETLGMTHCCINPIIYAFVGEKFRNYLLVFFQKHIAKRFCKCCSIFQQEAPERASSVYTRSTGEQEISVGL

Tests used:
[1] = target: CXCR4 (Homo sapiens, UniProt P61073); test: cAMP assay; format: cell-based
[2] = target: CCR5 (Homo sapiens, UniProt P51681); test: cAMP assay, U87CD4CCR5 cells stimulated with CCL5; format: cell-based

Cl.Cl.Cl.Cl.Cl.Cl.Cl.Cl.c1cc(CN2CCCNCCNCCCNCC2)ccc1CN1CCCNCCNCCCNCC1 [Compound 1, AMD3100, reference compound]
Concentration at which CXCL12 function is significantly blocked / counteracted [1]: ~1000 nM | Effect on blocking CCL5 stimulating CCR5 (cAMP) [2]: no significant effect
